Target: T1, Cloned human receptors D2L (C-6) (Homo sapiens, UniProt P14416)
T1 construct: expressed in transfected cells; host or cells: C-6 cells
Experiment: Binding affinity, cloned human D2L receptor (C-6)
Conditions: C-6 cells; read-out: K0.5, Cloned human receptors D2L (C-6)

Amino acid sequences for entries named in this document (tags omitted). A change or cut given only in a name is not applied to a line headed by its entry.
UniProt P14416, whole entry: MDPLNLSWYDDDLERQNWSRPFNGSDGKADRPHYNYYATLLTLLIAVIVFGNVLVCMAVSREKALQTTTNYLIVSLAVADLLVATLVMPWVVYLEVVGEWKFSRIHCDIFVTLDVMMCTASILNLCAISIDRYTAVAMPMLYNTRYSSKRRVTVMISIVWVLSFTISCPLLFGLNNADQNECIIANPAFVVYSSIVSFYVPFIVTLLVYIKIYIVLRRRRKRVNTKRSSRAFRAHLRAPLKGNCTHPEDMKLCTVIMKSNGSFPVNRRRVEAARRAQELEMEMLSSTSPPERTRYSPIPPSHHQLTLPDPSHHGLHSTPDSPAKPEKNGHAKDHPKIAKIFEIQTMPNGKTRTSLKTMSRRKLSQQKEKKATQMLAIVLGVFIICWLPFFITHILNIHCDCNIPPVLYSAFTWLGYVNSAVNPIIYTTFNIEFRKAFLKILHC

Ki: 180 nM
SMILES: Oc1cc2c(cc1O)[C@@H]1c3ccccc3CN[C@H]1CC2 (relative stereo) [dihydrexidine, trans-10,11-dihydroxy-5,6,6a,7,8,12b-hexahydrobenzo[a]phenanthridine, reference compound]
